Data from patent US12390441B2, “Immunomodulating o-het/aryl azalides” (Zoetis Services LLC, priority 2020, dated 2025).
Where two headings read alike, the source gives them in different places.

System: BRD pathogens, M. haemolytica and P. multocida
Experiment: In-vitro MIC model, BRD pathogen screening panel
Type: cell-based, Mannheimia haemolytica; Pasteurella multocida
[1] = M. haemolytica and P. multocida strains

Row | Structure (SMILES) | antibacterial / non-antibacterial classification [1] | antibacterial / non-antibacterial classification
1 | CCCNC[C@]1(O)[C@H](C)O[C@@H](O[C@H]2[C@H](C)[C@@H](O[C@@H]3O[C@H](C)C[C@H](N(C)C)[C@H]3Oc3ccccc3)[C@](C)(O)C[C@@H](C)CN[C@H](C)[C@@H](O)[C@](C)(O)[C@@H](CC)OC(=O)[C@@H]2C)C[C@@]1(C)OC [Example E-3, (2R,3S,4R,5R,8R,10R,11R,12S,13S,14R)-11-(((2S,3R,4S,6R)-4-(dimethylamino)-6-methyl-3-phenoxytetrahydro-2H-pyran-2-yl)oxy)-2-ethyl-3,4,10-trihydroxy-13-(((2R,4R,5S,6S)-5-hydroxy-4-methoxy-4,6-dimethyl-5-((propylamino)methyl)tetrahydro-2H-pyran-2-yl)oxy)-3,5,8,10,12,14-hexamethyl-1-oxa-6-azacyclopentadecan-15-one] | non-antibacterial (a compound with an MIC≥64 μg/mL for the BRD pathogens, M. haemolytica and P. multocida) | 
2 | CCCNC[C@]1(O)[C@H](C)O[C@@H](O[C@H]2[C@H](C)[C@@H](O[C@@H]3O[C@H](C)C[C@H](NC)[C@H]3Oc3ccccc3)[C@](C)(O)C[C@@H](C)CN(CCC)[C@H](C)[C@@H](O)[C@](C)(O)[C@@H](CC)OC(=O)[C@@H]2C)C[C@@]1(C)OC [Example E-157] | non-antibacterial (a compound with an MIC≥64 μg/mL for the BRD pathogens, M. haemolytica and P. multocida) | 
3 | CC[C@H]1OC(=O)[C@H](C)[C@@H](O)[C@H](C)[C@@H](O[C@@H]2O[C@H](C)C[C@H](N(C)C(=O)N(C)c3ccccc3)[C@H]2Oc2ccccc2)[C@](C)(O)C[C@@H](C)CN(C)[C@H](C)[C@@H](O)[C@]1(C)O [Example C-12, 1-((2S,3R,4S,6R)-2-(((2R,3S,4R,5R,8R,10R,11R,12S,13S,14R)-2-ethyl-3,4,10,13-tetrahydroxy-3,5,6,8,10,12,14-heptamethyl-15-oxo-1-oxa-6-azacyclopentadecan-11-yl)oxy)-6-methyl-3-phenoxytetrahydro-2H-pyran-4-yl)-1,3-dimethyl-3-phenylurea] | non-antibacterial (a compound with an MIC≥64 μg/mL for the BRD pathogens, M. haemolytica and P. multocida) | 
4 | CCCNC[C@]1(O)[C@H](C)O[C@@H](O[C@H]2[C@H](C)[C@@H](O[C@@H]3O[C@H](C)C[C@H](NC)[C@H]3Oc3ncc(Cl)cn3)[C@](C)(O)C[C@@H](C)CN[C@H](C)[C@@H](O)[C@](C)(O)[C@@H](CC)OC(=O)[C@@H]2C)C[C@@]1(C)OC [Example E-30, (2R,3S,4R,5R,8R,10R,11R,12S,13S,14R)-11-(((2S,3R,4S,6R)-3-((5-chloropyrimidin-2-yl)oxy)-6-methyl-4-(methylamino)tetrahydro-2H-pyran-2-yl)oxy)-2-ethyl-3,4,10-trihydroxy-13-(((2R,4R,5S,6S)-5-hydroxy-4-methoxy-4,6-dimethyl-5-((propylamino)methyl)tetrahydro-2H-pyran-2-yl)oxy)-3,5,8,10,12,14-hexamethyl-1-oxa-6-azacyclopentadecan-15-one] | non-antibacterial (a compound with an MIC≥64 μg/mL for the BRD pathogens, M. haemolytica and P. multocida) | 
5 | CC[C@H]1OC(=O)[C@H](C)[C@@H](O[C@H]2C[C@@](C)(OC)[C@@H](O)[C@H](C)O2)[C@H](C)[C@@H](O[C@@H]2O[C@H](C)C[C@H](NC)[C@H]2Oc2ccccc2)[C@](C)(O)C[C@@H](C)CN(C)[C@H](C)[C@@H](O)[C@]1(C)O [Example A-26, (2R,3S,4R,5R,8R,10R,11R,12S,13S,14R)-2-ethyl-3,4,10-trihydroxy-13-(((2R,4R,5S,6S)-5-hydroxy-4-methoxy-4,6-dimethyltetrahydro-2H-pyran-2-yl)oxy)-3,5,6,8,10,12,14-heptamethyl-11-(((2S,3R,4S,6R)-6-methyl-4-(methylamino)-3-phenoxytetrahydro-2H-pyran-2-yl)oxy)-1-oxa-6-azacyclopentadecan-15-one] |  | non-antibacterial (a compound with an MIC≥64 μg/mL for the BRD pathogens, M. haemolytica and P. multocida)
6 | CCCNC[C@]1(O)[C@H](C)O[C@@H](O[C@H]2[C@H](C)[C@@H](O[C@@H]3O[C@H](C)C[C@H](NC)[C@H]3Oc3ccc(Cl)nc3)[C@](C)(O)C[C@@H](C)CN[C@H](C)[C@@H](O)[C@](C)(O)[C@@H](CC)OC(=O)[C@@H]2C)C[C@@]1(C)OC [Example E-8, (2R,3S,4R,5R,8R,10R,11R,12S,13S,14R)-11-(((2S,3R,4S,6R)-3-((6-chloropyridin-3-yl)oxy)-6-methyl-4-(methylamino)tetrahydro-2H-pyran-2-yl)oxy)-2-ethyl-3,4,10-trihydroxy-13-(((2R,4R,5S,6S)-5-hydroxy-4-methoxy-4,6-dimethyl-5-((propylamino)methyl)tetrahydro-2H-pyran-2-yl)oxy)-3,5,8,10,12,14-hexamethyl-1-oxa-6-azacyclopentadecan-15-one] | non-antibacterial (a compound with an MIC≥64 μg/mL for the BRD pathogens, M. haemolytica and P. multocida) | 
7 | CCCNC[C@]1(O)[C@H](C)O[C@@H](O[C@H]2[C@H](C)[C@@H](O[C@@H]3O[C@H](C)C[C@H](NC)[C@H]3Oc3ccccc3)[C@](C)(O)C[C@@H](C)CN[C@H](C)[C@@H](O)[C@](C)(O)[C@@H](CC)OC(=O)[C@@H]2C)C[C@@]1(C)OC [Example E-112, (2R,3S,4R,5R,8R,10R,11R,12S,13S,14R)-2-ethyl-3,4,10-trihydroxy-13-(((2R,4R,5S,6S)-5-hydroxy-4-methoxy-4,6-dimethyl-5-((propylamino)methyl)tetrahydro-2H-pyran-2-yl)oxy)-3,5,8,10,12,14-hexamethyl-11-(((2S,3R,4S,6R)-6-methyl-4-(methylamino)-3-phenoxytetrahydro-2H-pyran-2-yl)oxy)-1-oxa-6-azacyclopentadecan-15-one] | non-antibacterial (a compound with an MIC≥64 μg/mL for the BRD pathogens, M. haemolytica and P. multocida) | 
8 | CC[C@H]1OC(=O)[C@H](C)[C@@H](O)[C@H](C)[C@@H](O[C@@H]2O[C@H](C)C[C@H](NC)[C@H]2Oc2ccc(F)cc2)[C@](C)(O)C[C@@H](C)CN[C@H](C)[C@@H](O)[C@]1(C)O [Example B-4, (2R,3S,4R,5R,8R,10R,11R,12S,13S,14R)-2-ethyl-11-(((2S,3R,4S,6R)-3-(4-fluorophenoxy)-6-methyl-4-(methylamino)tetrahydro-2H-pyran-2-yl)oxy)-3,4,10,13-tetrahydroxy-3,5,8,10,12,14-hexamethyl-1-oxa-6-azacyclopentadecan-15-one] |  | non-antibacterial (a compound with an MIC≥64 μg/mL for the BRD pathogens, M. haemolytica and P. multocida)
9 | CC[C@H]1OC(=O)[C@H](C)[C@@H](O)[C@H](C)[C@@H](O[C@@H]2O[C@H](C)C[C@H](NC)[C@H]2Oc2ccc(OC)cc2)[C@](C)(O)C[C@@H](C)CN[C@H](C)[C@@H](O)[C@]1(C)O [Example B-6, (2R,3S,4R,5R,8R,10R,11R,12S,13S,14R)-2-ethyl-3,4,10,13-tetrahydroxy-11-(((2S,3R,4S,6R)-3-(4-methoxyphenoxy)-6-methyl-4-(methylamino)tetrahydro-2H-pyran-2-yl)oxy)-3,5,8,10,12,14-hexamethyl-1-oxa-6-azacyclopentadecan-15-one] |  | non-antibacterial (a compound with an MIC≥64 μg/mL for the BRD pathogens, M. haemolytica and P. multocida)
